Data as given in ChEMBL document CHEMBL5108071, “Potent and Specific Activators for Mitochondrial Sirtuins Sirt3 and Sirt5” (J Med Chem, 2022).

Experiments:
[1] = target: NAD-dependent protein deacylase sirtuin-5, mitochondrial (Homo sapiens) (UniProt Q9NXA8); experiment: Activation of SIRT5 in human MDA-MB-231 cells assessed as blockade of ammonia accumulation at 50 uM incubated for 4 to 24 hrs; settings: filed as activator, time 4-24 hrs
[2] = target: NAD-dependent protein deacylase sirtuin-5, mitochondrial (Homo sapiens) (UniProt Q9NXA8); experiment: Activation of SIRT5 in human CAPAN-1 cells assessed as decrease in GOT1 acetylation at 20 uM incubated for 24 hrs by Western blot analysis; settings: filed as activator
[3] = target: NAD-dependent protein deacylase sirtuin-5, mitochondrial (Homo sapiens) (UniProt Q9NXA8); experiment: Activation of SIRT5 in human S2-013 cells assessed as decrease in GOT1 acetylation at 20 uM incubated for 24 hrs by Western blot analysis; settings: filed as activator
[4] = target: NAD-dependent protein deacylase sirtuin-5, mitochondrial (Homo sapiens) (UniProt Q9NXA8); experiment: Activation of SIRT5 in human MDA-MB-231 cells assessed as reduction in GDH level at 50 uM incubated for 4 to 24 hrs; settings: filed as activator, time 4-24 hrs

Measured: Activity

CCOC(=O)C1=CN(C(=O)c2ccccc2)C=C(C(=O)OCC)C1c1cccc(OC)c1
active: all assays above

Calls of active or inactive are those of the source.
